Measurements from patent publication EP0839146B1, “PIPERAZINE DERIVATIVES AND THEIR USE AS 5-HT1A ANTAGONISTS” (AMERICAN HOME PRODUCTS CORPORATION, priority 1995, dated 1997).

Biological target: α1 receptors
Experiment: α1 binding affinity (procedure of Marrow et al)
Settings: read-out: α1 binding IC50

Compound: COc1ccccc1N1CCN(CCN(C(=O)C2CCCCC2)c2ccccn2)CC1
- IC50: 230 nM
